Measured values taken from article PMC8915830 (Proceedings of the National Academy of Sciences of the …, 2022).

Chains of the proteins cited; added tags and fusions are not shown.
UniProt Q92847, whole entry: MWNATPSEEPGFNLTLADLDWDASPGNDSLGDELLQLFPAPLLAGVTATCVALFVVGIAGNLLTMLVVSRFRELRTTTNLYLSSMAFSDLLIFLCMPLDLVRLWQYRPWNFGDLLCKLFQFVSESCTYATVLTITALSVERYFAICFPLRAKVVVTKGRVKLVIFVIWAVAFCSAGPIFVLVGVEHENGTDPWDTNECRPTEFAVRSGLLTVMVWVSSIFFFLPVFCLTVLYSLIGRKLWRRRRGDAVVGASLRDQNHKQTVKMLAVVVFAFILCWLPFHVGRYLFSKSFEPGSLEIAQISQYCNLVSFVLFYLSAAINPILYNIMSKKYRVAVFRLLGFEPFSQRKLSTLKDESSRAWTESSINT

Target: hGHSR1a^WT (growth hormone secretagogue receptor-1a), expressed in HEK293/T cells (human) (UniProt Q92847)
Assay: radioligand binding

Substance: full length, human acyl-ghrelin peptide (1-28, amino acids)
- IC50: 2.5 nM
